# Reference: ChEMBL document CHEMBL2150881, “JD-5006 and JD-5037: peripherally restricted (PR) cannabinoid-1 receptor blockers related to SLV-319 (Ibipinabant) as metabolic disorder therapeutics devoid of CNS liabilities” (Bioorg Med Chem Lett, 2012)
# Key:
# Mus musculus = assay: Ratio of drug uptake in brain to plasma in chow fed mouse at 100 mg/kg, po for 3 days measured after 1 hr post last dose
# [1] = Efflux ratio of permeability from […] in MDR expressing MDCK cells; type: ADME, cell-based, Canis lupus familiaris; details: dog, MDCK-MDR1
BPR (Mus musculus) [%],efflux ratio [1],Structure (SMILES)
< 1,15,CC(C)[C@H](N/C(=N\S(=O)(=O)c1ccc(Cl)cc1)N1CC(c2ccccc2)C(c2ccc(Cl)cc2)=N1)C(N)=O (some centres undefined)
,34,NC(=O)CN=C(NS(=O)(=O)c1ccc(Cl)cc1)N1CC(c2ccccc2)C(c2ccc(Cl)cc2)=N1 (racemic)
4,,"NC(=O)CN=C(NS(=O)(=O)c1ccc(Cl)cc1)N1CC(c2ccccc2)C(c2ccc(Cl)cc2)=N1 (single isomer, unassigned; enantiomer 1)"
